Source: patent US20040229290A1 (priority 2003, published 2004)

Assay: thermal denaturation monitoring circular dichroism, PMPA designs

Row | Substance | thermostability
1 | glucose-binding protein | 58 °C
2 | ribose-binding protein | 60 °C
